Laboratory results published in US20090275085A1, “Enzyme for Obtaining Prebiotic Oligosaccharides” (CONSEJO SUPERIOR DE INVESTIGACIONES CIENTIFICAS, priority 2004, published 2009).

Test system: maltose
Assay: purified protein, by the assay type
Details: other: 30 minutes, 100 ng of enzyme; starch supplied by Avebe, 8100 Da

X. dendrorhous α-glucosidase (purified enzyme) (Phaffia rhodozyma)
Km: 2.71 mM | kcat: 7.67 s⁻¹ | kcat/Km: 2830 M⁻¹ s⁻¹
